# “And” between values parts separate entries of the source, which are not always exact repeats. Identical values can stand only once.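 48-hour exposure; five concentrations; linearly interpolated endpoints. At the GI50, growth is halved. TGI denotes the concentration required for complete inhibition of growth.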
# Experiments:
# Experiment in all cases: NCI tumour cell line growth inhibition, 48 h
# NCI-H460 lung = system: NCI-H460 lung
# SK-MEL-28 melanoma = system: SK-MEL-28 melanoma
# MALME-3M melanoma = system: MALME-3M melanoma
# MCF7 breast = system: MCF7 breast
# BT-549 breast = system: BT-549 breast
# MOLT-4 leukemia = system: MOLT-4 leukemia
# MDA-MB-435 = system: MDA-MB-435
# SK-MEL-2 melanoma = system: SK-MEL-2 melanoma
# CCRF-CEM leukemia = system: CCRF-CEM leukemia
# NCI-H226 lung = system: NCI-H226 lung
# ACHN renal = system: ACHN renal
# HOP-92 NSCLC = system: HOP-92 NSCLC
# KM12 colon = system: KM12 colon
# SN12C renal = system: SN12C renal
# SF-539 CNS = system: SF-539 CNS
# UO-31 renal = system: UO-31 renal
# PC-3 prostate = system: PC-3 prostate
# SF-268 CNS = system: SF-268 CNS
# LOX IMVI melanoma = system: LOX IMVI melanoma
# MDA-N = system: MDA-N
# HS 578T breast = system: HS 578T breast
# HT29 colon = system: HT29 colon
# HCT-15 colon = system: HCT-15 colon
# HCC-2998 colon = system: HCC-2998 colon
# SNB-19 CNS = system: SNB-19 CNS
# U251 CNS = system: U251 CNS
# EKVX NSCLC = system: EKVX NSCLC
# NCI/ADR-RES ovarian = system: NCI/ADR-RES ovarian
# OVCAR-5 ovarian = system: OVCAR-5 ovarian
# HCT-116 colon = system: HCT-116 colon
# SW-620 colon = system: SW-620 colon
# SF-295 CNS = system: SF-295 CNS
# OVCAR-3 ovarian = system: OVCAR-3 ovarian
# OVCAR-4 ovarian = system: OVCAR-4 ovarian
# HOP-62 NSCLC = system: HOP-62 NSCLC
# SNB-75 CNS = system: SNB-75 CNS
# NCI-H23 lung = system: NCI-H23 lung
# SK-OV-3 ovarian = system: SK-OV-3 ovarian
# RXF 393 renal = system: RXF 393 renal
# NCI-H322M lung = system: NCI-H322M lung
# RPMI-8226 leukemia = system: RPMI-8226 leukemia
# UACC-257 melanoma = system: UACC-257 melanoma
# M14 melanoma = system: M14 melanoma
# SR leukemia = system: SR leukemia
# 786-0 renal = system: 786-0 renal
# SK-MEL-5 melanoma = system: SK-MEL-5 melanoma
# MDA-MB-231 breast = system: MDA-MB-231 breast
# A549 NSCLC = system: A549 NSCLC
# IGROV1 ovarian = system: IGROV1 ovarian
# DU-145 prostate = system: DU-145 prostate
# NCI-H522 lung = system: NCI-H522 lung
# UACC-62 melanoma = system: UACC-62 melanoma
# K-562 leukemia = system: K-562 leukemia
# HL-60(TB) leukemia = system: HL-60(TB) leukemia
# TK-10 renal = system: TK-10 renal
# T-47D breast = system: T-47D breast
# OVCAR-8 ovarian = system: OVCAR-8 ovarian
# CAKI-1 renal = system: CAKI-1 renal
# A498 renal = system: A498 renal
compound,measurement,setting,value
CC(O)C1/C=C/C=C/C(=O)OC2CC3OC4C5OC5(C)C(O)CC4(COC(=O)C(O)C(C)CCO1)C2(C)C31CO1 (configuration not stated),GI50,NCI-H460 lung,14.4 nM
same,TGI,NCI-H460 lung,42.9 nM
same,GI50,SK-MEL-28 melanoma,64.1 nM and 11.6 nM
same,TGI,SK-MEL-28 melanoma,141 nM and 44.8 nM
same,GI50,MALME-3M melanoma,53.6 nM
same,TGI,MALME-3M melanoma,130 nM
same,GI50,MCF7 breast,18.5 nM
same,TGI,MCF7 breast,25000 nM and 66400 nM
same,GI50,BT-549 breast,81.4 nM and 20.3 nM
same,GI50,MOLT-4 leukemia,6.83 nM
same,TGI,MOLT-4 leukemia,148 nM
same,GI50,MDA-MB-435,71.6 nM and 29.5 nM
same,TGI,MDA-MB-435,279 nM and 114 nM
same,GI50,SK-MEL-2 melanoma,102 nM and 23.2 nM
same,TGI,SK-MEL-2 melanoma,453 nM and 75.4 nM
same,GI50,CCRF-CEM leukemia,14.1 nM
same,TGI,CCRF-CEM leukemia,453 nM and 109 nM
same,GI50,NCI-H226 lung,28.5 nM
same,TGI,NCI-H226 lung,93 nM
same,GI50,ACHN renal,222 nM and 156 nM
same,TGI,ACHN renal,1100 nM and 753 nM
same,GI50,HOP-92 NSCLC,12.9 nM
same,TGI,HOP-92 NSCLC,69.8 nM
same,GI50,KM12 colon,56.2 nM
same,TGI,KM12 colon,211 nM
same,GI50,SN12C renal,435 nM and 201 nM
same,TGI,SN12C renal,1650 nM
same,GI50,SF-539 CNS,43.3 nM
same,TGI,SF-539 CNS,86.9 nM and 27 nM
same,GI50,UO-31 renal,525 nM and 1460 nM
same,TGI,UO-31 renal,1420 nM and 5040 nM
same,GI50,PC-3 prostate,593 nM and 77.6 nM
same,TGI,PC-3 prostate,1380 nM and 368 nM
same,GI50,SF-268 CNS,139 nM and 85.2 nM
same,TGI,SF-268 CNS,1380 nM and 507 nM
same,GI50,LOX IMVI melanoma,16.3 nM
same,TGI,LOX IMVI melanoma,58.2 nM
same,GI50,MDA-N,77 nM
same,TGI,MDA-N,316 nM
same,GI50,HS 578T breast,55.9 nM and 23.5 nM
same,TGI,HS 578T breast,161 nM and 63.5 nM
same,GI50,HT29 colon,40.9 nM
same,TGI,HT29 colon,272 nM
same,GI50,HCT-15 colon,322 nM and 165 nM
same,TGI,HCT-15 colon,948 nM and 711 nM
same,GI50,HCC-2998 colon,32.8 nM
same,TGI,HCC-2998 colon,194 nM
same,TGI,SNB-19 CNS,31.3 nM
same,GI50,U251 CNS,59.2 nM
same,TGI,U251 CNS,232 nM and 141 nM
same,GI50,EKVX NSCLC,419 nM and 227 nM
same,TGI,EKVX NSCLC,1400 nM and 720 nM
same,GI50,NCI/ADR-RES ovarian,3720 nM and 11400 nM
same,TGI,NCI/ADR-RES ovarian,16000 nM and > 100000 nM
same,GI50,OVCAR-5 ovarian,552 nM and 214 nM
same,TGI,OVCAR-5 ovarian,1760 nM and 663 nM
same,GI50,HCT-116 colon,52.9 nM and 22.2 nM
same,TGI,HCT-116 colon,140 nM and 103 nM
same,GI50,SW-620 colon,166 nM and 19.6 nM
same,GI50,SF-295 CNS,378 nM and 181 nM
same,TGI,SF-295 CNS,709 nM and 668 nM
same,GI50,OVCAR-3 ovarian,67.7 nM and 14.7 nM
same,TGI,OVCAR-3 ovarian,235 nM and 58.7 nM
same,GI50,OVCAR-4 ovarian,80.5 nM and 127 nM
same,TGI,OVCAR-4 ovarian,302 nM and 559 nM
same,GI50,HOP-62 NSCLC,107 nM and 98.5 nM
same,TGI,HOP-62 NSCLC,608 nM and 605 nM
same,GI50,SNB-75 CNS,60.8 nM and 32.7 nM
same,TGI,SNB-75 CNS,170 nM and 93.5 nM
same,GI50,NCI-H23 lung,68 nM
same,TGI,NCI-H23 lung,259 nM
same,GI50,SK-OV-3 ovarian,83.8 nM and 55.3 nM
same,TGI,SK-OV-3 ovarian,524 nM and 397 nM
same,GI50,RXF 393 renal,60.6 nM and 132 nM
same,TGI,RXF 393 renal,189 nM and 452 nM
same,GI50,NCI-H322M lung,591 nM and 287 nM
same,TGI,NCI-H322M lung,3210 nM and 1570 nM
same,GI50,RPMI-8226 leukemia,18.3 nM
same,GI50,UACC-257 melanoma,82.1 nM and 37.9 nM
same,TGI,UACC-257 melanoma,376 nM and 120 nM
same,GI50,M14 melanoma,46.3 nM and 18.3 nM
same,TGI,M14 melanoma,91.8 nM and 43.1 nM
same,GI50,SR leukemia,30.7 nM
same,TGI,SR leukemia,3960 nM and 439 nM
same,GI50,786-0 renal,127 nM and 71 nM
same,TGI,786-0 renal,602 nM and 449 nM
same,GI50,SK-MEL-5 melanoma,30.5 nM
same,TGI,SK-MEL-5 melanoma,68.7 nM and 23.6 nM
same,GI50,MDA-MB-231 breast,494 nM and 252 nM
same,TGI,MDA-MB-231 breast,1240 nM and 703 nM
same,GI50,A549 NSCLC,486 nM and 251 nM
same,TGI,A549 NSCLC,1680 nM and 686 nM
same,GI50,IGROV1 ovarian,56.2 nM and 13.7 nM
same,TGI,IGROV1 ovarian,248 nM and 60 nM
same,GI50,DU-145 prostate,442 nM and 216 nM
same,TGI,DU-145 prostate,1150 nM and 623 nM
same,GI50,NCI-H522 lung,5.6 nM
same,TGI,NCI-H522 lung,18.9 nM
same,GI50,UACC-62 melanoma,63.3 nM and 45.8 nM
same,TGI,UACC-62 melanoma,159 nM and 234 nM
same,GI50,K-562 leukemia,139 nM
same,GI50,HL-60(TB) leukemia,54.5 nM
same,GI50,TK-10 renal,160 nM and 64.2 nM
same,TGI,TK-10 renal,1470 nM and 309 nM
same,GI50,T-47D breast,39.2 nM and 27 nM
same,TGI,T-47D breast,133 nM and 126 nM
same,GI50,OVCAR-8 ovarian,178 nM and 57.4 nM
same,TGI,OVCAR-8 ovarian,977 nM and 273 nM
same,GI50,CAKI-1 renal,694 nM and 415 nM
same,TGI,CAKI-1 renal,4540 nM and 1500 nM
same,GI50,A498 renal,84.1 nM and 51.2 nM
same,TGI,A498 renal,248 nM and 182 nM

# — PubChem BioAssay (NCI)
